The record followed here is PubChem BioAssay AID687016 (The Scripps Research Institute Molecular Screening Center, 2013).

Amino acid sequences for entries named in this document (tags omitted).
UniProt Q96T88, whole entry: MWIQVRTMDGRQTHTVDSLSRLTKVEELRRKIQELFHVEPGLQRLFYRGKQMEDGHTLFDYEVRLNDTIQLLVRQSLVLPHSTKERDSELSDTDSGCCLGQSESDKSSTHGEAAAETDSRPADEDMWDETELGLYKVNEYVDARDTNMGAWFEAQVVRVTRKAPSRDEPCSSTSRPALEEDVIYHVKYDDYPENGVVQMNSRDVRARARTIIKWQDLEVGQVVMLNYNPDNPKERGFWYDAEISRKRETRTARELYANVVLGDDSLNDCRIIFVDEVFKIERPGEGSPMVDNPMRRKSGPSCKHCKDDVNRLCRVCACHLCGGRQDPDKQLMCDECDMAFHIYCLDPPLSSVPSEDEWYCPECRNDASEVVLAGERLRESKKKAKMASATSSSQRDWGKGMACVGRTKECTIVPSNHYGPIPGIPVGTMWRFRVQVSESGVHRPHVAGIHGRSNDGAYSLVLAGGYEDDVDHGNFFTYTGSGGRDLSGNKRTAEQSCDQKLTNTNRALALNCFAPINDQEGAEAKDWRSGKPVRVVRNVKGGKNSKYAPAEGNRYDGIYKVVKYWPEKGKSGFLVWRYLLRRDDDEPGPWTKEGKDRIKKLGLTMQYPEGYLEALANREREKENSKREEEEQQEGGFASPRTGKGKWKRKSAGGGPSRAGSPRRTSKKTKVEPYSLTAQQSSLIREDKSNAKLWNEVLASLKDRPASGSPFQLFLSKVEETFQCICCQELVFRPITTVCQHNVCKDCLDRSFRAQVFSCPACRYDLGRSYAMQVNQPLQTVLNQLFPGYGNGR

The entries are a selection whose mix differs from that of the whole data set. The source made the active and inactive calls. Rule as the data show it: active = inhibition above about 21%; inactive = the rest.

The target in the assay is E3 ubiquitin-protein ligase UHRF1 (Homo sapiens) (UniProt Q96T88). Briefly: blockers of UHRF1 binding to methyl-oligo – biochemical, TR-FRET, human UHRF1, single concentration, counter-screen for MBD2 inhibitor project, primary screen (AID 687016).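 Also: UHRF1 SRA domain binding a hemimethylated CpG hairpin DNA probe; 0% = median of test compound wells and 100% = reference inhibitor.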 The conditions noted are these: UHRF1 binding to methylated oligo, at 4.4 µM, active compounds read high. (TR-FRET usually uses a lanthanide donor and a delayed reading to cut background.)
For the compound `O=c1[nH]c2ccccc2n1C1CCN(C(c2cc3ccccc3o2)c2nnnn2C2CCCC2)CC1` (stereo unspecified), the inhibition was inactive: 1.31%.

Consider `CCCOc1ccc(C(=O)NCC2(N(C)C)CCCCC2)cc1`, for which the inhibition was inactive: 0.69%.

Turning to `CC(C)(C)OC(=O)N1CCC(Nc2ccccc2)CC1`, the inhibition was inactive: 4.63%.

As to `O=C(O)C1(Nc2ccccc2)CCN(Cc2ccccc2)CC1`, the inhibition was inactive: -1.28%.

`NN(c1ccccc1)C1CCN(CCc2ccccc2)CC1`: the inhibition is inactive: -1.93%.

As for `CCOc1ncccc1C(=O)NCC1(N2CCOCC2)CCCCC1`, the inhibition was inactive: 4.25%.

As for `CN1CCC(Nc2ccc(F)c(Cl)c2)CC1`, the inhibition is inactive: 1.42%.

With `CN1CCC(Nc2ccc(Cl)cc2)CC1`, the inhibition was inactive: -1.59%.

On to `CCC(CO)(C(=O)OC1CN2CCC1CC2)c1ccccc1` (stereo unspecified), for which the inhibition was inactive: 2.2%.

For the compound `COc1cccc(C(c2nnnn2C2CCCC2)N2CCC(n3c(=O)[nH]c4ccccc43)CC2)c1OC` (stereo unspecified), the inhibition is inactive: -0.51%.

Take `COc1cc(OC)cc(C(=O)NCC2(N3CCOCC3)CCCCC2)c1`: the inhibition was inactive: -0.44%.

With `COc1cccc(C(=O)N(c2cc(C)cc(C)c2)C2CCN(C(=O)OC(C)(C)C)CC2)c1`, the inhibition was inactive: 0.38%.

As for `Cc1ccc(NC2(C#N)CCN(Cc3ccccc3)CC2)cc1`, the inhibition is inactive: 0.96%.

Turning to `Cc1ccc(C(=O)NCC2(N3CCCCC3)CCCCC2)o1`, the inhibition is inactive: -1.01%.

For `Fc1ccccc1NC1CCN(Cc2ccccc2)CC1`, the inhibition is inactive: -1.77%.

For the compound `COc1cc(OC)cc(C(=O)NCC2(N3CCCCC3)CCCCC2)c1`, the inhibition is inactive: -3.62%.

With `O=c1[nH]c2ccccc2n1C1CCN(C(c2ccnc3ccccc23)c2nnnn2C2CCCCC2)CC1` (stereo unspecified), the inhibition is inactive: 3.98%.

For the compound `COc1cccc(C(c2nnnn2C2CCCCC2)N2CCC(n3c(=O)[nH]c4ccccc43)CC2)c1OC` (stereo unspecified), the inhibition was inactive: 7.56%.

In the case of `CC(=O)N(c1ccccc1)C1CCNCC1`, the inhibition was inactive: 1.71%.

For `CCC(c1nnnn1C1CCCCC1)N1CCC(n2c(=O)[nH]c3ccccc32)CC1` (stereo unspecified), the inhibition is inactive: 2%.

For `O=C(NCC1(N2CCCCC2)CCCCC1)c1ccco1`, the inhibition is inactive: 2.79%.

Consider `CN(C)c1ccc(C(=O)NCC2(N3CCCCC3)CCCCC2)cc1`, for which the inhibition is inactive: -2.08%.

As to `Cn1c(=O)[nH]cc(N(CCCl)CCCl)c1=O`, the inhibition is inactive: -6.97%.

As to `Cc1ccccc1NC1(C#N)CCN(Cc2ccccc2)CC1`, the inhibition was inactive: 0%.

As for `COc1ccc(C(c2nnnn2C2CCCCC2)N2CCC(n3c(=O)[nH]c4ccccc43)CC2)cc1` (stereo unspecified), the inhibition is inactive: 0.88%.

Turning to `CCN1CCC(Nc2cccc(F)c2)CC1`, the inhibition was inactive: 0.9%.

`CC(C)(C)n1nnnc1C(c1ccnc2ccccc12)N1CCC(n2c(=O)[nH]c3ccccc32)CC1` (stereo unspecified): the inhibition was inactive: -0.7%.

For the compound `CC(C)(C)OC(=O)N1CCC(N(C(=O)c2ccccc2)c2ccc(Cl)cc2)CC1`, the inhibition is inactive: 2.01%.

As to `N#Cc1ccc(C(=O)NCC2(N3CCCCC3)CCCCC2)cc1`, the inhibition is inactive: 4.9%.

`CC(C)(C)n1nnnc1C(c1cccc2ccccc12)N1CCC(n2c(=O)[nH]c3ccccc32)CC1` (stereo unspecified): the inhibition is inactive: -1.98%.

On to `C/C(N)=N\P(=O)(Oc1ccccc1)Oc1ccccc1`, for which the inhibition was inactive: 0%.

Regarding `c1ccc(CN2CCC(Nc3ccccc3)CC2)cc1`, the inhibition was inactive: 5.26%.

Turning to `CCCN1CCC(Nc2cc(OC)cc(OC)c2)CC1`, the inhibition was inactive: 2.34%.

With `O=c1[nH]c2ccccc2n1C1CCN(C(c2ccccc2)c2nnnn2C2CCCC2)CC1` (stereo unspecified), the inhibition was inactive: -1.38%.

On to `Cc1cc(N(CCCl)CCCl)ccc1C=O`, for which the inhibition is inactive: 2.62%.

As for `CN(C)C1(CNC(=O)c2cccc(C#N)c2)CCCCC1`, the inhibition is inactive: -1.07%.

For the compound `COc1ccc(C(=O)NCC2(N3CCOCC3)CCCCC2)cc1OC`, the inhibition was inactive: -1.28%.

In the case of `O=c1[nH]c2ccccc2n1C1CCN(C(c2ccnc3ccccc23)c2nnnn2C2CCCC2)CC1` (stereo unspecified), the inhibition was inactive: 0.18%.

For the compound `O=c1[nH]c2ccccc2n1C1CCN(C(c2cccs2)c2nnnn2C2CCCCC2)CC1` (stereo unspecified), the inhibition is inactive: 2.31%.

Take `NC(=O)C1(Nc2ccccc2)CCN(Cc2ccccc2)CC1`: the inhibition was inactive: 1.09%.

In the case of `O=C(NCC1(N2CCOCC2)CCCCC1)c1cc(Br)ccc1Cl`, the inhibition is inactive: 3.75%.

As for `CCCCn1nnnc1C(c1ccccc1)N1CCC(n2c(=O)[nH]c3ccccc32)CC1` (stereo unspecified), the inhibition was inactive: -2.21%.

Take `COc1cc(C(=O)NCC2(N3CCOCC3)CCCCC2)cc(OC)c1C`: the inhibition was inactive: 11.2%.

Turning to `CCCCn1nnnc1C(c1cccc(OC)c1OC)N1CCC(n2c(=O)[nH]c3ccccc32)CC1` (stereo unspecified), the inhibition was inactive: 14.2%.

In the case of `O=C(OC1CN2CCC1CC2)C1c2ccccc2C=Cc2ccccc21` (stereo unspecified), the inhibition is inactive: -2.31%.

With `O=c1[nH]c2ccccc2n1C1CCN(C(c2cccs2)c2nnnn2C2CCCC2)CC1` (stereo unspecified), the inhibition was inactive: -0.64%.

Take `N/C(=N\O)c1c(N)no[n+]1[O-]`: the inhibition was inactive: -0.02%.

As for `CCOC(=O)N1CCC(Nc2ccc(C)cc2)CC1`, the inhibition was inactive: 0.19%.

On to `COc1cccc(C(c2nnnn2C(C)(C)C)N2CCC(n3c(=O)[nH]c4ccccc43)CC2)c1OC` (stereo unspecified), for which the inhibition is inactive: 1.07%.

Turning to `CCCCn1nnnc1C(c1ccnc2ccccc12)N1CCC(n2c(=O)[nH]c3ccccc32)CC1` (stereo unspecified), the inhibition is inactive: 0.56%.

`COc1cc(OC)c(C(=O)NCC2(N(C)C)CCCCC2)cc1OC`: the inhibition was inactive: 4.06%.

Turning to `CCC(c1nnnn1C(C)(C)C)N1CCC(n2c(=O)[nH]c3ccccc32)CC1` (stereo unspecified), the inhibition was inactive: 0.57%.

Consider `O=C(NCC1(N2CCOCC2)CCCCC1)c1cc(F)c(F)cc1Cl`, for which the inhibition was inactive: -0.47%.

With `COc1ccc(CN(CCCl)CCCl)cc1Cl`, the inhibition is inactive: 5.43%.

For the compound `COC(=O)C1(Nc2ccccc2)CCN(Cc2ccccc2)CC1`, the inhibition is inactive: 3.14%.

Turning to `CN(C)c1cccc(C(=O)NCC2(N3CCCCC3)CCCCC2)c1`, the inhibition is inactive: -1.19%.

Consider `CC(C)c1ccc(NC2CCN(C(=O)OC(C)(C)C)CC2)cc1`, for which the inhibition is inactive: -3.04%.

Regarding `Cc1ccc(C(=O)NCC2(N(C)C)CCCCC2)o1`, the inhibition is inactive: -0.58%.

Take `CCCOc1ccc(C(=O)NCC2(N(C)C)CCCCC2)cc1OC`: the inhibition is inactive: 0.84%.

Regarding `COc1ccc(C(c2nnnn2C2CCCC2)N2CCC(n3c(=O)[nH]c4ccccc43)CC2)cc1` (stereo unspecified), the inhibition was inactive: 16.7%.

Take `CN1CCC(Nc2cccc(F)c2)CC1`: the inhibition was inactive: -0.96%.

For orientation: inhibition means the change of the read-out against control, counted positive when it falls.
